The values that follow are results of earlier work, collected in patent US20240261236A1, “METHODS OF USING NMDA RECEPTOR ANTAGONISTS” (Seelos Therapeutics, Inc., priority 2021, published 2024).

Each structure is given as a SMILES string.

For the data set, the target named is NMDA receptor. Conditions: binds to the NMDA receptor; Moaddel et al. 2013; cited from earlier work.

Turning to `CNC1(c2ccccc2Cl)CCCCC1=O` (racemic) [intranasal racemic ketamine, 1:1 mixture of the two enantiomers of ketamine: (R)-2-(2-chlorophenyl)-2-(methylamino)cyclohexanone and (S)-2-(2-chlorophenyl)-2-(methylamino)cyclohexanone], the Ki is approximately 1060 nM.
